Columns and labels:
[1] = test system: MDA-MB-231 xenograft tumors; assay: Metastasis: bone marrow colonies and lung metastases in tumor-bearing mice; type: in vivo, mouse; conditions: Mena^INV tumors (231-MENA or 231-MENA^INV), 12 weeks
Excerpt: Taxol treatment fails to reduce metastasis of Mena^INV-expressing xenografts. To investigate the consequences of Taxol treatment on metastasis, we counted the number of metastases in the lung and the number of colonies in cultured bone morrow from mice bearing Control, Mena or Mena^INV tumor for 12 weeks. The number of colonies in the bone marrow (FIG. 3A) or metastases in the lung (FIG. 3B) from Mena^INV tumors was not affected by treatment with Taxol. […] Thus taxol treatment fails to reduce the increased metastatic phenotype associated with Mena^INV expression.
Xenograft tumor generation and in vivo chemotherapy treatment. All animal experiments were approved by the MIT Division of Comparative Medicine. 2 million MDA-MB-231 cells expressing different MENA isoforms (in PBS and 20% collagen I) were injected into the 4th right mammary fat pad of six week-old female NOD-SCID mice (Taconic). When the tumors reached 1 cm in diameter, mice were treated every five days with either three doses of paclitaxel at 10 mg/kg in 1% DMSO, 3% PEG (MW 400), 1% Tween 80 in PBS by intra-peritoneal injection. In parallel, mice were treated with only in 1% DMSO, 3% PEG (MW 400), 1% Tween 80 in PBS as a vehicle control. One day after the last injection, tumors were measured and mice were use for intravital imaging and then sacrificed. Their tumors and lungs were fixed in 10% formalin overnight, their bone marrow were collected using PBS and cultured in DMEM with 10% fetal bovine serum. The number of tumor cell colonies in cultured bone morrow was counted 1 month after collection. The number of metastasis in each lobe of the lung were counted from lung H&E stained sections visualized by light microscopy and counted by two blinded individuals. Each tumor group contained 3-5 mice.
MENA and MENA^INV drive increased cell motility and metastasis during tumor progression. Therefore, whether MENA isoform expression impacts cell migration and dissemination after paclitaxel treatment was examined.

microtubules (MT) = assay: MT length image analysis; type: cell-based, human; conditions: 231-Control or 231-MENA cells, 10 nM paclitaxel 24 hours
MDA-MB-231 cells = assay: Cell viability assay (Prestoblue) in MDA-MB-231 cells expressing GFP, GFP-Mena or GFP-Mena^INV; conditions: 72 hours, varying doses of paclitaxel

CC(=O)O[C@H]1C(=O)[C@@]2(C)[C@H]([C@H](OC(=O)c3ccccc3)[C@]3(O)C[C@H](OC(=O)[C@H](O)[C@@H](NC(=O)c4ccccc4)c4ccccc4)C(C)=C1C3(C)C)[C@]1(OC(C)=O)CO[C@@H]1C[C@@H]2O [paclitaxel]
number of colonies in cultured bone marrow [1]: Neither the number of bone marrow colonies | number of metastases in the lung [1]: nor the number of lung metastases | number of colonies in cultured bone marrow ([1]; listed as Taxol): not affected | number of metastases in the lung ([1]; listed as Taxol): not affected | MT length (microtubules (MT)): had no effect | fraction of viable 231-MENA or 231-MENA^INV cells higher than fraction of viable 231-Control cells (MDA-MB-231 cells): at least 65%

From patent US20170168056A1, “METHODS AND COMPOSITIONS FOR DETECTING AND MODULATING CANCER CELLS” (Massachusetts Institute of Technology, priority 2015, published 2017)
